## Ab-14 heavy chain CDR variants: yeast mating affinities

The measurements come from Li et al. 2023 (doi:10.1038/s41467-023-39022-2) through the FLAb antibody collection.

The target is the same throughout: PDVDLGDISGINAS, from the HR2 region of SARS-CoV-2 spike.

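The starting antibody came from a phage panning campaign against this peptide. The variants were designed computationally from a first round of random CDR variants and then made and measured. Their group label is 14H_Ctrl (Ctrl: baseline library sampled from a position-specific scoring matrix, with some repeated check sequences). The assay is AlphaSeq: two haploid yeast populations carry antibody and antigen on their surface. Pairs that bind mate more often; barcode pairs of the diploids are counted by sequencing. Each replicate has its own calibration line, from reference interactions of the BCL2 family. Each pool was mated in six replicate cultures.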

Parent scFv Ab-14: VH joined to VL by a (GGGGS)3 linker. Changes lie in the heavy chain CDRs alone.
VH: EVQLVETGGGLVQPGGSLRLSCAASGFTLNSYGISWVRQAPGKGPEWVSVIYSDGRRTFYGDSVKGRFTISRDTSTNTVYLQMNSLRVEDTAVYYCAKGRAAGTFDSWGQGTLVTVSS
VL: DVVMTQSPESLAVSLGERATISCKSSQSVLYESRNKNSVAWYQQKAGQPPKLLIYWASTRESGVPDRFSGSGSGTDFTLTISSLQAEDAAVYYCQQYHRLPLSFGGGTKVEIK

Variants are written as CDR1, CDR2 and CDR3 of the heavy chain (limits as in the source). Parent: GFTLNSYGIS, VIYSDGRRTFYGDSVK, GRAAGTFDS. The read-out is the apparent dissociation constant on a log10 scale (nM): the lower, the stronger. Averages over replicates are reported, and they cover detected replicates only. An entry "n.d." has no value in the source: the pair was not observed among the diploids in that replicate. This suggests poor binding but is not conclusive.

{"CDR-H1": "GFNLNSYGIS", "CDR-H2": "VIYSDGRRTFYGDSVK", "CDR-H3": "GRTADTFSS", "log10 Kd, replicates": "n.d. n.d. n.d. n.d. n.d. n.d.", "mean, log10 nM": "n.d.", "signal with controls": "0/18"}
{"CDR-H1": "GFTLNSYGIS", "CDR-H2": "VIYADGRRTAYGDSVK", "CDR-H3": "GRAAGTFPS", "log10 Kd, replicates": "n.d. 3.36 n.d. n.d. n.d. n.d.", "mean, log10 nM": "3.36", "signal with controls": "1/18 (2.51)"}
{"CDR-H1": "GFTLLDYGIS", "CDR-H2": "VIYSDGRRTFYEDSVK", "CDR-H3": "GRAAGTFDS", "log10 Kd, replicates": "n.d. n.d. n.d. n.d. n.d. n.d.", "mean, log10 nM": "n.d.", "signal with controls": "0/18"}
{"CDR-H1": "GFCLNSYGIS", "CDR-H2": "VIYSDGRRTHYGDSVK", "CDR-H3": "TRAAGTFHS", "log10 Kd, replicates": "n.d. n.d. n.d. n.d. n.d. n.d.", "mean, log10 nM": "n.d.", "signal with controls": "0/18"}
{"CDR-H1": "GFTLNSYSIS", "CDR-H2": "VIYSDGRRTFYSDSVD", "CDR-H3": "GRAAGYFDS", "log10 Kd, replicates": "n.d. n.d. n.d. n.d. n.d. n.d.", "mean, log10 nM": "n.d.", "signal with controls": "0/18"}
{"CDR-H1": "GFTLNSYGYS", "CDR-H2": "VIYSDGRRTMYGDSVK", "CDR-H3": "GRAAAVFDS", "log10 Kd, replicates": "n.d. n.d. n.d. n.d. n.d. n.d.", "mean, log10 nM": "n.d.", "signal with controls": "0/18"}
{"CDR-H1": "GFTLNSYGIS", "CDR-H2": "VIYSDGIRTFYGDDVK", "CDR-H3": "GRAALTFDS", "log10 Kd, replicates": "n.d. n.d. n.d. n.d. n.d. n.d.", "mean, log10 nM": "n.d.", "signal with controls": "0/18"}
{"CDR-H1": "GFTLNSYGSS", "CDR-H2": "VIYSDGRRTFYLDSVK", "CDR-H3": "GRAAGTFDS", "log10 Kd, replicates": "n.d. n.d. n.d. n.d. n.d. n.d.", "mean, log10 nM": "n.d.", "signal with controls": "0/18"}
{"CDR-H1": "GFTLNSYGIS", "CDR-H2": "VIYSDGYRTFYADSVR", "CDR-H3": "GYAAGTFDS", "log10 Kd, replicates": "n.d. n.d. n.d. n.d. 1.57 n.d.", "mean, log10 nM": "1.57", "signal with controls": "0/18"}
{"CDR-H1": "GFHLNSYGIS", "CDR-H2": "VIYSDGRRTFYGDSVK", "CDR-H3": "GRAIGTFDS", "log10 Kd, replicates": "n.d. n.d. n.d. n.d. n.d. n.d.", "mean, log10 nM": "n.d.", "signal with controls": "0/18"}
{"CDR-H1": "GFTLNEYGIS", "CDR-H2": "VIYADGRRTFYKDSFK", "CDR-H3": "GWAAGTFDS", "log10 Kd, replicates": "1.77 0.26 -0.01 0.96 0.70 0.66", "mean, log10 nM": "0.72", "signal with controls": "0/18"}
{"CDR-H1": "GFTLNSYMIS", "CDR-H2": "VIYADGRRVAYINSVK", "CDR-H3": "GSAMGTFDS", "log10 Kd, replicates": "n.d. 4.09 n.d. n.d. n.d. n.d.", "mean, log10 nM": "4.09", "signal with controls": "0/18"}
{"CDR-H1": "GFTLNSYGIS", "CDR-H2": "VIYSDGMRTFYIDSVK", "CDR-H3": "GRMALTFDS", "log10 Kd, replicates": "n.d. 0.96 n.d. n.d. n.d. n.d.", "mean, log10 nM": "0.96", "signal with controls": "0/18"}
{"CDR-H1": "GFTLNDYGIS", "CDR-H2": "VIYSDGRRQFYGDSVK", "CDR-H3": "GEAAGTFDS", "log10 Kd, replicates": "n.d. 1.92 1.21 1.86 4.24 2.02", "mean, log10 nM": "2.25", "signal with controls": "1/18 (3.30)"}
{"CDR-H1": "GFDLNSYGIS", "CDR-H2": "VIYADGRRTFYGDSVK", "CDR-H3": "GRAAGTFDS", "log10 Kd, replicates": "-0.10 -0.74 -0.56 -0.60 -0.46 -0.21", "mean, log10 nM": "-0.44", "signal with controls": "0/18"}
{"CDR-H1": "GFTLDSYGIS", "CDR-H2": "VIYSDGRRTSYGDSVK", "CDR-H3": "GKAAGTFDS", "log10 Kd, replicates": "1.38 2.39 2.18 2.02 1.70 2.10", "mean, log10 nM": "1.96", "signal with controls": "2/18 (3.70)"}
{"CDR-H1": "GFTLNSYGIS", "CDR-H2": "VIYSDGRRTFYGDSVK", "CDR-H3": "GRAAGTFSQ", "log10 Kd, replicates": "n.d. n.d. n.d. n.d. n.d. n.d.", "mean, log10 nM": "n.d.", "signal with controls": "0/18"}
{"CDR-H1": "GFTLNSYGIS", "CDR-H2": "VIYSDGRRTFYLDSVK", "CDR-H3": "GKAPKTFDS", "log10 Kd, replicates": "n.d. n.d. n.d. n.d. n.d. n.d.", "mean, log10 nM": "n.d.", "signal with controls": "1/18 (1.53)"}
{"CDR-H1": "GFTLDSYGIS", "CDR-H2": "VIYSDGRRTFYGDSVK", "CDR-H3": "GWAAGTFDS", "log10 Kd, replicates": "1.77 2.62 n.d. 1.74 n.d. 2.43", "mean, log10 nM": "2.14", "signal with controls": "0/18"}
{"CDR-H1": "GFTLNSYGRS", "CDR-H2": "VIYSDGRRTFYDDSVK", "CDR-H3": "GKAAGTFDS", "log10 Kd, replicates": "n.d. n.d. n.d. n.d. n.d. n.d.", "mean, log10 nM": "n.d.", "signal with controls": "0/18"}
{"CDR-H1": "GFDLRSYGIS", "CDR-H2": "VIYSDGWRTAYGDSVR", "CDR-H3": "GRAAGTFDS", "log10 Kd, replicates": "n.d. n.d. n.d. n.d. n.d. n.d.", "mean, log10 nM": "n.d.", "signal with controls": "0/18"}
{"CDR-H1": "GFTLNSYGIS", "CDR-H2": "VIYADGRRTFYGDSVK", "CDR-H3": "GRAAGTDDS", "log10 Kd, replicates": "n.d. n.d. n.d. n.d. n.d. n.d.", "mean, log10 nM": "n.d.", "signal with controls": "0/18"}
{"CDR-H1": "GFTINSYGIS", "CDR-H2": "VIYSDGRRTFYDDSVK", "CDR-H3": "GRAAGTFDS", "log10 Kd, replicates": "0.95 0.07 -0.15 0.38 0.53 1.50", "mean, log10 nM": "0.55", "signal with controls": "0/18"}
{"CDR-H1": "GFTLESYGIS", "CDR-H2": "VIYSDGRRTFYGDSVK", "CDR-H3": "GQAAGTFSS", "log10 Kd, replicates": "n.d. n.d. n.d. n.d. n.d. 2.85", "mean, log10 nM": "2.85", "signal with controls": "1/18 (2.70)"}
{"CDR-H1": "GFTRNSYGIS", "CDR-H2": "VIYSDGRRTFYGDSVK", "CDR-H3": "GRAAGTFTS", "log10 Kd, replicates": "n.d. n.d. n.d. n.d. n.d. n.d.", "mean, log10 nM": "n.d.", "signal with controls": "0/18"}
{"CDR-H1": "GFTLNLYGIS", "CDR-H2": "VIYSDGRRTFYGDSVK", "CDR-H3": "GRAAGTWFS", "log10 Kd, replicates": "n.d. n.d. n.d. n.d. n.d. n.d.", "mean, log10 nM": "n.d.", "signal with controls": "0/18"}
{"CDR-H1": "GFTLNSYGIS", "CDR-H2": "VIYSDGYRTFYSDSVK", "CDR-H3": "GRAAGTFDS", "log10 Kd, replicates": "0.73 0.29 0.06 -0.06 0.24 0.21", "mean, log10 nM": "0.24", "signal with controls": "0/18"}
{"CDR-H1": "GFTLNSYGIS", "CDR-H2": "VIYSDGRRTFYGDSVK", "CDR-H3": "GRNAGTFHS", "log10 Kd, replicates": "n.d. n.d. n.d. n.d. n.d. n.d.", "mean, log10 nM": "n.d.", "signal with controls": "0/18"}

Repeated from above, the 4 best binders with a signal in all replicates:

{"CDR-H1": "GFDLNSYGIS", "CDR-H2": "VIYADGRRTFYGDSVK", "CDR-H3": "GRAAGTFDS", "log10 Kd, replicates": "-0.10 -0.74 -0.56 -0.60 -0.46 -0.21", "mean, log10 nM": "-0.44", "signal with controls": "0/18"}
{"CDR-H1": "GFTLNSYGIS", "CDR-H2": "VIYSDGYRTFYSDSVK", "CDR-H3": "GRAAGTFDS", "log10 Kd, replicates": "0.73 0.29 0.06 -0.06 0.24 0.21", "mean, log10 nM": "0.24", "signal with controls": "0/18"}
{"CDR-H1": "GFTINSYGIS", "CDR-H2": "VIYSDGRRTFYDDSVK", "CDR-H3": "GRAAGTFDS", "log10 Kd, replicates": "0.95 0.07 -0.15 0.38 0.53 1.50", "mean, log10 nM": "0.55", "signal with controls": "0/18"}
{"CDR-H1": "GFTLNEYGIS", "CDR-H2": "VIYADGRRTFYKDSFK", "CDR-H3": "GWAAGTFDS", "log10 Kd, replicates": "1.77 0.26 -0.01 0.96 0.70 0.66", "mean, log10 nM": "0.72", "signal with controls": "0/18"}

The parent sequence was in this pool as ten entries: three were never detected, three once, and four in most replicates, with averages from 0.34 to 2.37. Three control strains display no target. For all heavy chain designs, 1% of the pairings with them gave a signal, with a median of 2.08 and one signal in twenty below 0.84, so weak values seen in few replicates may be background. The control count says in how many pairings with the empty strains this scFv gave a signal, with their mean in brackets. The authors averaged sequences with at least three values out of six and counted those with two or fewer as poor binders. Values of this round are not directly comparable with the first-round values of the same sequences.